The text below walks through data of patent EP1321467A2, “High affinity inhibitors for target validation and uses thereof” (Princeton University, priority 1999, dated 2000).

The chains behind the UniProt entries cited, without tags or fusion partners. Residues count along the entry.
UniProt P06241, 1-534 isoform P06241-2: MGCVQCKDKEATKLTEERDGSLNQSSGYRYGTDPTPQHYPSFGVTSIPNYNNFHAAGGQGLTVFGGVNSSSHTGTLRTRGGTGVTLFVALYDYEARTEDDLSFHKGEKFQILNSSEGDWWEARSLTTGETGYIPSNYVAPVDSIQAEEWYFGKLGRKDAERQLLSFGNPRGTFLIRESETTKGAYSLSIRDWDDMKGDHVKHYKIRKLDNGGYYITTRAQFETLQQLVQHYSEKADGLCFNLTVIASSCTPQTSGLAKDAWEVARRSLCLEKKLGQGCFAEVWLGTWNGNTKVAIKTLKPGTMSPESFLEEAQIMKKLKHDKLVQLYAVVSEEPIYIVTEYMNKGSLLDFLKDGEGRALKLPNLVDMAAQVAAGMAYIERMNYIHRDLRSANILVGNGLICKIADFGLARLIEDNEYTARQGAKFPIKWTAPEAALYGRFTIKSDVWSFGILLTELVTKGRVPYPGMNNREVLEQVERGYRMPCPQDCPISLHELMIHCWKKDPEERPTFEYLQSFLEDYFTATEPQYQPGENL

The target of this test is T1, WT Fyn (Homo sapiens, UniProt P06241).
T1 construct: GST (N); made in house; host or cells: E. coli DH5a, pGEX-KT
Kind of test: In vitro kinase inhibition assay. The test is classed as biochemical.

Consider `CC(C)(C)n1nc(-c2cccc3ccccc23)c2c(N)ncnc21` [4-amino-1-(tert-butyl)-3-(1'-naphthyl)pyrazolo[3,4-d]pyrimidine], for which half-maximal inhibition (IC50) required 600 nM.

In general, IC50 refers to the concentration that inhibits the measured activity by half.
